# Assay outcomes: PubChem BioAssay, Broad Institute
# Wnt act – activates Wnt/beta-catenin signaling in a reporter cell assay. activation, % at 9.35 µM. activator, plate reader. 300,000 tested, 1.2% active; in the data active = activation above about 30%, passing the limit was not always enough; inconclusive = no clear call, values can overlap the other calls;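 note: 0% = neutral control wells and 100% = positive control wells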
# MITF TRPM1 inh – MITF TRPM1 promoter inhibition in SK-MEL-5 cells | inhibition, % at 12.5 µM | SK-MEL-5 TRPM1 promoter luciferase, 24 h | 330,000 tested, 0.83% active;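 active = mean inhibition across replicates of 60% or more, whatever share of single replicates reaches that level; inconclusive = some that reach 60%, reason not given; inactive = mean inhibition across replicates below 60%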
# MITF act – increases MITF-driven TRPM1 promoter luciferase signal; activation, % at 12.5 µM; 300,000 tested, 0.75% active; SK-MEL-5 TRPM1-promoter luciferase, 24 h; % of positive control, neutral wells = 0;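 active = mean activation of at least 80% with every replicate also reaching 80%; inconclusive = mean reaches 80% but some replicate falls short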;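 note: 0% = neutral control wells and 100% = parthenolide positive control wells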
# PGC1a acetyl inh – PGC1a acetylation modulation, inhibitor mode. U2OS PGC1a acetylation, AlphaScreen anti-acetyl-lysine; with virally co-expressed GCN5 acetyltransferase. inhibition, % at 15.6 µM. 350,000 tested, 0.17% active;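 active = every replicate shows inhibition of at least 40%; inconclusive = mean inhibition at least 40% but some replicate below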;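 note: 0% = neutral control wells and 100% = positive control wells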
# miR122 inh – inhibitors of miR-122 in Huh7 cells | Huh7 miR-122 Renilla luciferase sensor, 48 h; neutral wells = 0, positive control = 100 | activation (reporter increase), % at 12.5 µM | 340,000 tested, 0.3% active | AID 602342;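 active = mean replicate activation score at least 90 and every replicate individually at or above 90; inconclusive = only one of the two criteria met; inactive = neither criterion met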;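 note: higher luciferase means less miR-122 activity so hits act as miR-122 inhibitors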
# UUG fidelity – yeast start codon fidelity modulation; activity score, % at 18.7 µM; actives 0.13% (n = 350,000); S. cerevisiae UUG-firefly luciferase reporter, luminescence/redox ratio; AID 602363;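 active means replicate mean at a twofold rise or more, about +100% in these data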;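 further: firefly luciferase made from a UUG start codon reports start codon fidelity; reporter light over untreated wells divided by growth signal over untreated wells; some hits fall short of that in this replicate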
# Numbers without * were called inactive; ? = inconclusive; . = not tested or not shown; [ ] = another dose, or the depositor's remark. Compounds with a hit are over-represented: about 2.1% of the library has one in this group of screens.
# Abbreviations: A = Wnt act; B = MITF TRPM1 inh; C = MITF act; D = PGC1a acetyl inh; E = miR122 inh; F = UUG fidelity
> COc1ccc(NC(=O)Nc2ccc3c(c2)C(=O)N([C@@H](C)CO)C[C@H](C)[C@H](CN(C)S(=O)(=O)c2cn(C)cn2)OCCCC[C@@H](C)O3)cc1
  A: . | B: . | C: . | D: 10 | E: 15[16.7 µM] | F: 14

> CN1CCN(C(=O)C[C@@H]2CC[C@@H]3[C@H](COC[C@H](O)CN3C(=O)C3CCOCC3)O2)CC1
  A: . | B: . | C: . | D: -1 | E: -2[16.7 µM] | F: -7

> CO[C@H]1CC[C@H]2CCN(C)C(=O)[C@H](C)[C@@H](OC)CN(C)C(=O)c3cccc(C#N)c3OC[C@H]1O2
  A: . | B: . | C: . | D: -5 | E: . | F: .

> CNC[C@@H]1OCCCC[C@H](C)Oc2ccc(NC(=O)Nc3ccc(F)cc3)cc2C(=O)N([C@@H](C)CO)C[C@H]1C
  A: . | B: . | C: . | D: -5 | E: 11[16.7 µM] | F: 38

> CN1CCN(C(=O)C[C@@H]2CC[C@H]3[C@@H](COC[C@@H](O)CN3S(=O)(=O)c3cccc(F)c3)O2)CC1
  A: . | B: . | C: . | D: -1 | E: 1[16.7 µM] | F: 25

> O=C(OCC(=O)N1CCC(Cc2ccccc2)CC1)c1ccccc1NCCO
  A: -4 | B: -12 | C: 11 | D: 8 | E: -7 | F: .

> O=C(OCC(=O)N1CCC(Cc2ccccc2)CC1)c1ccccc1O
  A: -3 | B: -87 | C: 90* | D: 36 | E: -1 | F: -18

> O=C(NCC(=O)N1CCC(Cc2ccccc2)CC1)c1ccccc1F
  A: 45* | B: . | C: . | D: -1 | E: -4 | F: -15

> FC(F)(F)c1cnc(-c2cnc(-c3cccnc3)nc2)c(Cl)c1
  A: ? | B: -103 | C: 106* | D: . | E: . | F: .

> Oc1ccc(Cl)cc1C=NN1CCCCCC1
  A: 49* | B: -45 | C: 47 | D: 7 | E: -2 | F: .

> Oc1ccccc1C=NN1CCCCCC1
  A: -1 | B: -62 | C: 69 | D: 7 | E: 1 | F: .

> CCNC(=O)C[C@@H]1CC[C@@H]2[C@H](COC[C@H](O)CN2Cc2ccncc2)O1
  A: . | B: . | C: . | D: -2 | E: -4[16.7 µM] | F: .

> Cn1c(-c2ccc3c(c2)OCO3)cc(=O)c2ccccc21
  A: -1 | B: . | C: . | D: -15 | E: 12 | F: -2

> Cn1c2ccccc2c(=O)c2ccc(-c3ccc4c(c3)OCO4)cc21
  A: 41* | B: -78 | C: 84* | D: -3 | E: 5 | F: -9

> C[C@H]1CN([C@@H](C)CO)C(=O)c2cc(NC(=O)C3CC3)ccc2O[C@H]1CN(C)Cc1ccncc1
  A: . | B: . | C: . | D: -7 | E: -5[16.7 µM] | F: 11

> C[C@H](CO)N1C[C@H](C)[C@@H](CN(C)Cc2ccccc2)Oc2ccc(NC(=O)Cn3cnnn3)cc2CC1=O
  A: . | B: . | C: . | D: . | E: 1[16.7 µM] | F: 12

> CC1(c2ccccc2)NC(=O)N(CC#N)C1=O (stereo not given)
  A: 36* | B: -13 | C: 14 | D: -6 | E: -1 | F: .

> O=C(NN=C1CCCC1)c1[nH]c2ccc(Br)cc2c1-c1ccccc1
  A: -23 | B: . | C: . | D: . | E: . | F: .

> O=C(N/N=C/c1ccccc1)c1[nH]c2ccc(Br)cc2c1-c1ccccc1
  A: -12 | B: 74* | C: -71 | D: . | E: . | F: .

> C/C(=N/NC(=O)c1cccs1)c1cccs1
  A: 22 | B: -32 | C: . | D: 11 | E: 0 | F: -8

# Some of the entries above in another layout.
# Values in the order: Wnt act | MITF TRPM1 inh | MITF act | PGC1a acetyl inh | miR122 inh | UUG fidelity
- FC(F)(F)c1cnc(-c2cnc(-c3cccnc3)nc2)c(Cl)c1
 : ? | -103 | 106* | . | . | .
- Oc1ccc(Cl)cc1C=NN1CCCCCC1
 : 49* | -45 | 47 | 7 | -2 | .
- Oc1ccccc1C=NN1CCCCCC1
 : -1 | -62 | 69 | 7 | 1 | .

# (more compounds)
# Abbreviations: A = Wnt act; B = MITF TRPM1 inh; C = MITF act; D = PGC1a acetyl inh; E = miR122 inh; F = UUG fidelity
> C/C(=N\NC(=O)c1cccc(S(=O)(=O)Nc2cccc(Cl)c2)c1)c1cccs1
  A: -4 | B: -1 | C: 3 | D: . | E: 148* | F: -1

> CCN(CC)S(=O)(=O)c1cccc(C(=O)N/N=C(\C)c2cccs2)c1
  A: -1 | B: -91 | C: 101* | D: . | E: 0 | F: -6

> COCCNC(=O)C[C@@H]1C[C@@H]2c3cc(NC(=O)c4ccc5c(c4)OCO5)ccc3O[C@@H]2[C@H](CO)O1
  A: . | B: . | C: . | D: 0 | E: 7[16.7 µM] | F: 0

> O=C(C[C@H]1CC[C@@H]2[C@H](COC[C@@H](O)CN2Cc2ccc(Cl)cc2)O1)NCc1ccccc1Cl
  A: . | B: . | C: . | D: -10 | E: 2[16.7 µM] | F: .

> C[C@H](CO)N1C[C@H](C)[C@H](CN(C)C(=O)Nc2ccc(F)cc2)Oc2ccc(NC(=O)Nc3cccc4ccccc34)cc2C1=O
  A: . | B: . | C: . | D: -6 | E: -7[16.7 µM] | F: -11

> CCCNC(=O)c1oc2ccc3c(c2c1C)C=CC(C)(C)O3
  A: 38* | B: -106 | C: 105* | D: -6 | E: . | F: -19

> CCCNC(=O)c1oc2ccc3c(c2c1C)C(=O)CC(C)(C)O3
  A: 59* | B: -83 | C: 89* | D: 5 | E: -9 | F: -25

> Cc1c(C(=O)NCCc2ccccc2)oc2ccccc12
  A: 0 | B: -54 | C: 55 | D: . | E: 2 | F: -49

> C/C=C/c1ccc([C@@H]2[C@@H](C#N)N(C(=O)CN3CCOCC3)[C@H]2CO)cc1
  A: . | B: . | C: . | D: 2 | E: . | F: .

> CC(C)C(=O)Nc1ccc2c(c1)C(=O)N(C)[C@@H]1CC[C@H](CC(=O)NCc3ccc(F)cc3)O[C@@H]1CO2
  A: . | B: . | C: . | D: -9 | E: 1[16.7 µM] | F: 14

> O=[N+]([O-])c1ccc(Cc2nnc(-c3ccc(F)cc3)o2)cc1
  A: ? | B: -81 | C: ? | D: -6 | E: . | F: .

> Cc1ccc(-c2nnc(Cc3ccc([N+](=O)[O-])cc3)o2)cc1
  A: ? | B: -97 | C: 94* | D: -9 | E: 3 | F: -12

> Oc1ccc(-c2nnc(SCc3ccccc3)o2)cc1
  A: 17 | B: -112 | C: 114* | D: -9 | E: -2 | F: -32

> C#CCSc1nnc(-c2ccc(O)cc2)o1
  A: 46* | B: -77 | C: ? | D: 1 | E: -14 | F: -8

> C#CCSc1nnc(-c2ccc(C)cc2)o1
  A: . | B: -46 | C: . | D: -5 | E: -5 | F: -10

> c1ccc(-c2nnc(SCCC3OCCCO3)o2)cc1
  A: 48* | B: -10 | C: 11 | D: -4 | E: 0 | F: 9

> Brc1ccc(-c2nnc(SCCC3OCCCO3)o2)cc1
  A: . | B: -26 | C: 33 | D: 6 | E: 0 | F: -13

> Cc1noc(C)c1S(=O)(=O)N(C)C[C@H]1Oc2ccc(NC(=O)C3CCCCC3)cc2CC(=O)N([C@H](C)CO)C[C@@H]1C
  A: . | B: . | C: . | D: 5 | E: -1[16.7 µM] | F: 5

> CO[C@@H]1CN(C)C(=O)c2ccc(NC(=O)c3cccc(Oc4ccccc4)c3)cc2OC[C@@H](C)NC[C@H]1C
  A: . | B: . | C: . | D: -26 | E: . | F: .

> CCCC(=O)c1ccc(N2CCCC2)c(F)c1
  A: 49* | B: -59 | C: 68 | D: 2 | E: -13 | F: 0

> Cc1ccc(O)c(NC(=O)CCC2CCCCC2)c1
  A: . | B: -92 | C: 84* | D: -15 | E: 3 | F: .

> O=C(CCC1CCCCC1)Nc1ccccc1O
  A: 25 | B: -98 | C: 95* | D: -8 | E: -23 | F: -25

> CO[C@H]1CN(C)C(=O)c2cc(NS(C)(=O)=O)ccc2OC[C@@H](C)N(CC2CC2)C[C@H]1C
  A: . | B: . | C: . | D: 12 | E: . | F: -12

> CCn1c(C)nc2cc(-c3nc4n(n3)Cc3ccccc3-4)ccc21
  A: -11 | B: 98* | C: -97 | D: -3 | E: -5 | F: -93

> Cc1ccc(-c2nc3n(n2)Cc2ccccc2-3)cc1
  A: . | B: 48 | C: -46 | D: . | E: 17 | F: -49

> CC(C)(C)S(=O)(=O)c1cnc(-c2ccc(Cl)cc2)nc1N
  A: 39* | B: -194 | C: ? | D: . | E: . | F: .

> C[C@H](O)C#Cc1cnc2c(c1)C(=O)N([C@H](C)CO)C[C@H](C)[C@H](CN(C)Cc1ccccn1)O2
  A: . | B: . | C: . | D: 8 | E: -3[16.7 µM] | F: -16

> ClC1(Cl)CC1CSc1nc2ccccc2[nH]1 (stereo not given)
  A: 9 | B: -70 | C: 66 | D: . | E: . | F: .

> CCOc1ccc2nc(SCC3CC3(Cl)Cl)[nH]c2c1 (stereo not given)
  A: 35* | B: . | C: . | D: -3 | E: . | F: .

> COc1ccc2c(c1OC)C(=O)OC2Nc1nc(-c2cc3cc(Br)ccc3oc2=O)cs1 (stereo not given)
  A: 51* | B: -139 | C: 144* | D: -5 | E: 6 | F: -30

> C=CCN=c1scc(-c2ccco2)n1/N=C/c1ccc(O)c(O)c1O
  A: 42* | B: -26 | C: 39 | D: . | E: . | F: .
